# Ab-14 light chain CDR variants: yeast mating affinities

Binding partner: SARS-CoV-2 spike HR2 peptide, sequence PDVDLGDISGINAS.

Each scFv is VH, a 15-residue (Gly4Ser)3 linker, VL, as in the parent Ab-14, and differs from it in the CDRs of the light chain only.
VH: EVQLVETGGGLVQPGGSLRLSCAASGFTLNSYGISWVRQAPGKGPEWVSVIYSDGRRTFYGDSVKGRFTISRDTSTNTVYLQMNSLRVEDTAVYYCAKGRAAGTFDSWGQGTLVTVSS
VL: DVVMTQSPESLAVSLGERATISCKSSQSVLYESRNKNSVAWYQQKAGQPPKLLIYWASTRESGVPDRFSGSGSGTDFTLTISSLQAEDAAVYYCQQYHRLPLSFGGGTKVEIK

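Phage display of a naive human antibody library on the peptide gave the parent. Library AAYL50 holds single substitutions and randomly drawn double and triple substitutions in the CDRs. Affinity was read by AlphaSeq, a pooled yeast mating assay with surface-displayed partners. Mating (16 h, 30 °C) was followed by selection of diploids and sequencing of their barcodes. The ratio of observed to expected reads was calibrated, replicate by replicate, on BCL2-family standards whose Kd was known from biolayer interferometry. Mating was done three times.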

Substitutions are numbered in sequence along the VL above, starting at 1 (not Kabat).
Numbers give log10(Kd / nM), so 0 is 1 nM and 3 is 1 µM. Smaller is tighter.
Where no diploid with the target was found in that replicate, the entry reads "n.d.": below detection, most likely a poor binder, though not proof of it.
Parent in this assay: reference entry 0.65, copy in this library 1.68.

| changes | log10 Kd (nM) by replicate | empty controls |
|---|---|---|
| L30Q N37S R60L | 1.80 / 1.77 / 1.83 | 4 of 9 (4.46) |
| W56Y E61I S103E | n.d. / n.d. / n.d. | 0 of 9 |
| Q27I R99T S103F | 3.10 / 2.78 / 2.11 | 0 of 9 |
| S25I S26F R34V | 0.29 / 0.46 / 0.34 | 0 of 9 |
| A40E T59L E61G | n.d. / n.d. / n.d. | 1 of 9 (3.60) |
| V39D P101D L102T | 5.78 / n.d. / n.d. | 4 of 9 (3.54) |
| R60Y Y97Q S103N | n.d. / n.d. / 5.68 | 2 of 9 (3.65) |
| L30P S58A E61W | 1.97 / 1.40 / 2.86 | 0 of 9 |
| R34S Q95Y Q96F | n.d. / n.d. / n.d. | 1 of 9 (3.01) |
| S33K N35D S58C | n.d. / 2.98 / n.d. | 1 of 9 (3.47) |
| S25K E32K | n.d. / n.d. / n.d. | 3 of 9 (4.33) |
| V29I N37A Q96R | n.d. / n.d. / 3.73 | 3 of 9 (3.41) |
| K24T S58R T59K | n.d. / 2.75 / n.d. | 0 of 9 |
| L30Q Y31V L100G | 0.76 / 1.04 / 0.92 | 4 of 9 (3.92) |
| S25I S28L A40Y | n.d. / n.d. / n.d. | 0 of 9 |
| S38Y A40I Y97S | n.d. / n.d. / n.d. | 1 of 9 (4.32) |
| R34C V39Y W56A | n.d. / n.d. / n.d. | 0 of 9 |
| A57N | n.d. / n.d. / n.d. | 2 of 9 (3.17) |
| S25M T59N | -0.08 / 0.48 / 0.17 | 3 of 9 (5.79) |
| S33E W56E A57I | -0.32 / -0.01 / -0.16 | 3 of 9 (5.13) |
| N35E S58Q | 1.55 / 1.29 / 1.40 | 2 of 9 (5.21) |
| E32T V39P H98S | n.d. / 4.40 / 5.96 | 3 of 9 (4.70) |
| S28I L102C | n.d. / 3.89 / n.d. | 0 of 9 |
| K36Y R99T | 0.92 / 1.16 / 1.11 | 2 of 9 (4.39) |
| K24T S33A R99T | 2.00 / n.d. / 1.49 | 0 of 9 |
| A57L P101D L102N | n.d. / n.d. / n.d. | 1 of 9 (4.69) |
| L30E S62G L102E | 4.24 / 5.44 / 5.51 | 5 of 9 (4.18) |
| K24V S28H W56R | 0.41 / 0.64 / 0.76 | 1 of 9 (3.70) |
| Y31E S33N Q96V | 3.64 / 3.87 / 4.61 | 1 of 9 (4.10) |
| K36Q T59A S62D | 0.54 / 0.72 / 0.58 | 2 of 9 (5.03) |
| S62D Q95S | 1.48 / 1.62 / 1.56 | 2 of 9 (3.59) |
| N37I A57L H98E | n.d. / n.d. / n.d. | 1 of 9 (3.84) |
| K36L N37V Q96Y | 4.00 / 2.56 / 3.39 | 2 of 9 (3.91) |
| K24H Y31G E61I | 1.33 / 1.32 / 1.42 | 5 of 9 (4.12) |
| S38W L100I P101K | 4.78 / n.d. / n.d. | 2 of 9 (2.90) |
| K24A L30S R99F | 3.13 / 2.58 / 2.71 | 3 of 9 (4.14) |
| Q27L N35S K36H | 0.96 / 1.06 / 1.13 | 4 of 9 (4.46) |
| S26E Q27A L30F | 1.38 / 1.37 / 1.33 | 1 of 9 (4.33) |
| K24I R60V S62A | 3.33 / 2.81 / 3.11 | 7 of 9 (4.09) |
| A40I L100T L102K | n.d. / n.d. / n.d. | 0 of 9 |
| S26Y E32D V39P | n.d. / n.d. / n.d. | 5 of 9 (4.64) |
| L30P E32S A57T | 0.49 / 0.66 / 1.89 | 0 of 9 |
| S33P V39D R60M | n.d. / n.d. / n.d. | 1 of 9 (3.02) |
| E32I Q96W Y97K | 4.26 / n.d. / n.d. | 4 of 9 (4.79) |
| A57C Y97I H98L | n.d. / n.d. / n.d. | 1 of 9 (3.21) |
| S28G H98P L102K | n.d. / n.d. / n.d. | 1 of 9 (3.35) |

5 of these entries, quoted again:

| changes | log10 Kd (nM) by replicate | empty controls |
|---|---|---|
| R60Y Y97Q S103N | n.d. / n.d. / 5.68 | 2 of 9 (3.65) |
| S25K E32K | n.d. / n.d. / n.d. | 3 of 9 (4.33) |
| S25I S28L A40Y | n.d. / n.d. / n.d. | 0 of 9 |
| S33P V39D R60M | n.d. / n.d. / n.d. | 1 of 9 (3.02) |
| Q27L N35S K36H | 0.96 / 1.06 / 1.13 | 4 of 9 (4.46) |

As a blank, each scFv also met three strains without target: over library AAYL50, 18% of these pairings were detected, typically at 4.19 and seldom below 2.99. Also given: how often the same scFv was detected with the empty control strains, with their mean in brackets.

Reference: Engelhart et al. 2022, doi:10.1038/s41597-022-01779-4. File: FLAb, binding data.